Target: Mcl-1 (Homo sapiens, UniProt Q07820)
Assay: Fluorescence polarization (FP)-based binding assay, Mcl-1
Conditions: FP competitive binding, Flu-BID probe; 3-5 independent experiments; read-out: Mcl-1 IC50 ± SD

Amino acid sequences for entries named in this document (tags omitted).
UniProt Q07820, whole entry: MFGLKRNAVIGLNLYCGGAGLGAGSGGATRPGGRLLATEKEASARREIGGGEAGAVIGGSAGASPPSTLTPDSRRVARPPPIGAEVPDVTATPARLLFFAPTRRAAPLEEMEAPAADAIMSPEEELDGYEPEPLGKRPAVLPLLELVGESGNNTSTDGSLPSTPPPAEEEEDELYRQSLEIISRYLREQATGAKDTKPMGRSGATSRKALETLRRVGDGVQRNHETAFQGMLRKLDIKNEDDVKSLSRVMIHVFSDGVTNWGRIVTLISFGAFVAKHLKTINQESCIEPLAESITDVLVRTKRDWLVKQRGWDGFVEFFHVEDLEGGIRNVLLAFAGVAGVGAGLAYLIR

IC50: > 1000 nM
SMILES: CN(C)CC[C@H](CSc1ccccc1)Nc1ccc(S(=O)(=O)NC(=O)c2ccc(N3CCN(Cc4ccccc4-c4ccc(Cl)cc4)CC3)cc2)cc1[N+](=O)[O-] [ABT-737]
